# Assays:
# By UniProt entry, the sequences of proteins in these tests, tags left out.
# UniProt P50052, whole entry: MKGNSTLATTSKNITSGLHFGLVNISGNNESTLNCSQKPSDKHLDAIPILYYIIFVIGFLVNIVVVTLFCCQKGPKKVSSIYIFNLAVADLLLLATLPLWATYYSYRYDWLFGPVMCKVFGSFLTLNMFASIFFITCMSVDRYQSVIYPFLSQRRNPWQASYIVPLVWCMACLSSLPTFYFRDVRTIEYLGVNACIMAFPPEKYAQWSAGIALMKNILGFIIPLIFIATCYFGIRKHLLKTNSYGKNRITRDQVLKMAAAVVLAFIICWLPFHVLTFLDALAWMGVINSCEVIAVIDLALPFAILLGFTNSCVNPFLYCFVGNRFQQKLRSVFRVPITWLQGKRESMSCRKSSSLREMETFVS
# [1] = system: mouse selective nerve injury model; assay: Analgesic effect in mouse selective nerve injury model (mechanical allodynia, von Frey filaments); conditions: 10 mg/kg p.o. single dose, 1, 2 and 4 hours after administration; larger AUC = better analgesic effect
# Experimental: Test Example 5 Study on the analgesic effect of the compounds of the present invention on inhibiting pain in a mouse selective nerve injury model
# (§1) A 5% DMSO + 10% Solutol + 85% Saline solution was used.
# Experimental animals: C57BL/6 mice, weighing 18-22 g, male, purchased from Beijing Vital River Laboratory Animal Technology Co., Ltd.
# • (1) The surgical procedure was performed under aseptic conditions. • (2) Surgical instruments (scissors, forceps, scalpels, surgical cotton, and sutures) were sterilized before surgery. • (3) The animals were anesthetized with Zoletil 50 (50 mg/kg) + xylazine hydrochloride injection (8 mg/kg) (intraperitoneal injection, 2.5 mL/kg). The toes of the animals were pinched to confirm complete anesthesia before surgery; an ophthalmic ointment was applied to the eyes of the animals to prevent corneal drying. • (4) The hair in the surgical area of the animals was shaved, and the skin was disinfected three times with iodophor and 70% ethanol; the surgery was started after the skin dried. • (5) The sciatic nerve and its three distal branches (the tibial, common peroneal, and sural nerves) were exposed. The tibial and common peroneal nerves were transected using ophthalmic scissors, and the sural nerve was spared. • (6) The wound was sutured. • (7) The surgical instruments were cleaned and sterilized using a hot bead sterilizer. • (8) After surgery, the animals were placed on a heating pad, and 1 mL of normal saline was injected subcutaneously to prevent dehydration. After the animals were fully awake (able to move freely), they were returned to their cages.
# On days 4-6 post-modeling, the animals were placed in the testing environment for habituation for 30 minutes/day for 3 consecutive days. On day 7 post-modeling, the baseline measurement of mechanical allodynia was performed on the modeled animals.
# The mice in each group were given a single dose of the corresponding drug via intraperitoneal or oral administration at 10 mL/kg according to the experimental protocol.
# On day 8 post-modeling, the mechanical allodynia test was performed on the left hind paw of the mice at 1, 2, and 4 hours after administration.
# The mice were placed individually in a Plexiglas box with a wire mesh floor to ensure that the paws of the mice could be tested. The mice were allowed to habituate for 15 minutes before the test.
# After habituation, the test was performed using testing filaments on the central plantar surface of the left hind paw of the mice. The testing filaments included 8 testing strengths: 2.36 (0.02 g), 2.44 (0.04 g), 2.83 (0.07 g), 3.22 (0.16 g), 3.61 (0.4 g), 3.84 (0.6 g), 4.08 (1 g), and 4.17 (1.4 g). […] During testing, a rapid paw withdrawal by the animal was recorded as a pain response. Paw withdrawal when the test filament was removed from the animal's skin was also recorded as a pain response. If the animal moved or walked around, it was not recorded as a pain response, and the test should be repeated. […]
# (§2) Mechanical allodynia is expressed as the paw withdrawal threshold (PWT) in the mouse behavioral test, which is calculated according to the following formula: • 50% response threshold (g)= (10^(Xf+kδ)/10,000 • Xf=value of the final testing filament used in the test • k = tabular value (Chaplan et al. 1994, page 62) • δ = mean difference
# Data were analyzed using one-way or two-way analysis of variance (ANOVA) followed by Dunnett's multiple comparisons test in Prism software (GraphPad Software, Inc.). […]
# AT2 receptor = AT2 receptor (Homo sapiens, UniProt P50052); assay: AT2R Binding assay (Tag-lite HTRF, affinity for AT2 receptor); conditions: read-out: AT2R IC50; Tag-lite Angiotensin AT2 labeled Cells, 25 °C, 1 hour
# Experimental: Test Example 1 Determination of the affinity of the test compounds for AT2 receptor by AT2R Binding assay
# 1. Reagent preparation • 1.1 Cell line: Tag-lite Angiotensin AT2 labeled Cells; • 1.2 Assay buffer: 1X TLB (5 mL 5X TLB + 20 mL H2O); 2. Activity assay of the test compounds • 2.1 1X TLB assay buffer, 4X working solutions of the test compounds, and 4X Tag-lite angiotensin receptor red agonist (Cisbio, L0007RED) were prepared; • 2.2 One vial of labeled-AT2R cells was thawed in a water bath at 37 °C until the ice completely melted (1-2 min). The thawed cells were quickly transferred to 5 mL of 1X TLB, mixed gently, and centrifuged at 200 g for 5 min; • 2.3 The supernatant was discarded, and the cells were resuspended and mixed with 1 mL of 1X TLB. Then, 1.7 mL of 1X TLB was added and mixed, and the mixture was kept at room temperature for later use; • 2.4 10 µL of cells were added to a 384-well plate (Greiner, 784075) and centrifuged at 200 g at RT for 3 s; 5 µL of the 4X compound was added to the 384-well plate; 5 µL of the 4X Tag-lite angiotensin receptor red agonist was added to all test wells; • 2.5 The reaction plate was left to stand at room temperature of 25 °C for 1 hour, and then centrifuged at 200 g, RT for 60 s. Data was collected using an Envision HTRF detector. 3. Data analysis • 3.1 Calculation of % inhibition: [formula] • 3.2 Calculation of compound IC50 using GraphPad non-linear fitting formula: Y = Bottom + (Top-Bottom)/(1+10^(∧)((LogIC50-X)*HillSlope)) [formula] • X: log value of compound concentration; Y: % inhibition 4. Experimental results
# [2] = system: rat chronic constriction injury of the sciatic nerve model; assay: Analgesic effect in rat chronic constriction injury of the sciatic nerve model (mechanical allodynia, von Frey filaments); conditions: 10 mg/kg PO
# Experimental: Test Example 6 Study on the analgesic effect of the compounds of the present invention on inhibiting pain in a rat chronic constriction injury of the sciatic nerve model
# as §1
# Experimental animals: Sprague-Dawley rats, weighing 80-100 g, male, purchased from Beijing Vital River Laboratory Animal Technology Co., Ltd.
# • 1) The surgical procedure was performed under aseptic conditions. • 2) Surgical instruments (scissors, forceps, scalpels, surgical cotton, and sutures) were sterilized before surgery. • 3) The animals were anesthetized with Zoletil 50 + xylazine hydrochloride injection (20 mg/kg + 8 mg/kg, intraperitoneal injection). The toes of the animals were pinched to confirm complete anesthesia before surgery. An ophthalmic ointment was applied to the eyes of the animals to prevent corneal drying. • 4) The skin in the surgical area of the left hind plantar surface was disinfected three times with iodophor and 70% ethanol. The surgery was started after the skin dried. • 5) The left sciatic nerve was isolated. Four loose ligatures were tied around the sciatic nerve using 4-0 chromic gut sutures at approximately 7 mm proximal to the bifurcation, with a spacing of about 1 mm between the ligatures. • 6) The wound was sutured. • 7) The surgical instruments were cleaned and sterilized using a hot bead sterilizer. • 8) After surgery, the animals were placed on a heating pad, and 5 mL of normal saline was injected subcutaneously to prevent dehydration. After the animals were fully awake (able to move freely), they were returned to their cages.
# 1) On days 7 to 9 post-surgery, the animals were placed in the testing environment to habituate for at least 30 minutes per day. 2) On day 10 post-surgery, the baseline measurement of mechanical allodynia (PWT) was performed on all animals.
# On day 11 post-surgery, the animals in all groups were weighed and administered according to the grouping information.
# The mechanical allodynia test was performed on each animal using testing filaments at 1 h and 2 h after a single dose administration.
# • 1) The rats were placed individually in a Plexiglas box with a wire mesh floor to ensure that the paws of the rats could be tested. The rats were allowed to habituate for 15 minutes before the test. • 2) After habituation, the test was performed using testing filaments on the central plantar surface of the left hind paw of the rats. The testing filaments included 8 testing strengths: 3.61 (0.4 g), 3.84 (0.6 g), 4.08 (1 g), 4.31 (2 g), 4.56 (4 g), 4.74 (6 g), 4.93 (8 g), and 5.18 (15 g). During testing, the test filament was pressed vertically against the skin with enough force to bend the filament for 6-8 seconds, with an interval of 5 seconds between each test. During testing, a rapid paw withdrawal by the animal was recorded as a pain response. Paw withdrawal when the test filament was removed from the animal's skin was also recorded as a pain response. If the animal moved or walked around, it was not recorded as a pain response, and the test should be repeated. • 3) During the test, the 4.31 (2 g) filament was used first. […] The maximum strength of the testing filaments was 5.18 (15 g). • 4) The test results were recorded in the table below, where a pain response was recorded as "x" and no pain response was recorded as "o". [formula]
# as §2, with “rat” for “mouse”, “formula:” for “formula: •”, “(g) = (10^((Xf+kδ)))/10,000 [formula]” for “(g)= (10^(Xf+kδ)/10,000”, “Xf = value” for “Xf=value”, “difference (0.224)” for “difference”
# Data were analyzed using Prism software (GraphPad Software, Inc.).
IC50 (AT2 receptor),Structure (SMILES),"Mean AUC value (AUC0-4h of analgesic effect, paw withdrawal threshold) [1]",PWT ([2]; testing time point 0 h),PWT ([2]; testing time point 1 h),PWT ([2]; testing time point 2 h)
6.75 nM,CC(C)Cc1cc(CN2CCC(F)(F)C2)c(-c2nn[nH]n2)c(N2CCN(Cc3cccnn3)[C@@H](C)C2)c1,2.280,,,
3.08 nM,CC(C)Cc1cc(N2CCN(Cc3cccnn3)[C@@H](C)C2)c(-c2nn[nH]n2)c(N2CCC(F)(F)C2)c1,,2.82 g,5.88 g,7.02 g
1.07 nM,CC(C)Cc1cc(Cn2cc(C(F)(F)F)cn2)c(-c2nn[nH]n2)c(N2CCN(Cc3cccnn3)[C@@H](C)C2)c1,2.856,,,
11 nM,CC(C)Cc1cc(NC2CCCC2O)c(-c2nn[nH]n2)c(N2CCN(Cc3cccnn3)[C@@H](C)C2)c1 (stereo partly shown),2.480,,,

# — patent EP4847503A1, “TETRAZOLE COMPOUND, PHARMACEUTICAL COMPOSITION THEREOF AND USE THEREOF” (dated 2026)
